Test: Blood clearance of 125I-C5aRa in mice
Format: in vivo, mouse
Procedure: To evaluate the blood clearance of C5aRa, anesthetized mice were injected i.v. with C5aRa (1 mg/kg body weight) in 200 μL DPBS containing trace amounts of 1^25I-C5aRa (specific activity 33.9 μCi/μg). Sixty seconds after administration, 5 μL blood was drawn from a small incision at the tail tip, followed by direct pressure to stop further bleeding. Animals were killed after specified periods (1, 2, 3, 6, 12, 24, 36, 48, 72, 96 h) and the radioactivity of blood samples (100 μL aliquots) was measured in a gamma counter (1261 Multigamma, EG&G, Wallac, Gaithersburg, Md.) and compared with the value obtained 1.0 min after infusion of C5aRa.

C5aRa concentration in blood as percent of the initial dose (36 h after application, i.v. 1 mg/kg): 10%
share of slower clearance phase in total area for blood concentration vs. time (single i.v. bolus 1 mg/kg): 63%
Structure (SMILES): N=C(N)NCCC[C@@H]1NC(=O)[C@H](Cc2c[nH]c3ccccc23)NC(=O)[C@@H](CC2CCCCC2)NC(=O)[C@@H]2CCCN2C(=O)[C@@H](NC(=O)[C@@H](N)Cc2ccccc2)CCCNC1=O [C5aRa, F[OPdChaWR]]
